Laboratory results: patent EP4847510A1, “TETRACYCLIC COMPOUND, AND PREPARATION METHOD, PHARMACEUTICAL COMPOSITION, AND USE THEREOF” (dated 2026)

By UniProt entry, the sequences of proteins in these tests, tags left out.
UniProt P28223, whole entry: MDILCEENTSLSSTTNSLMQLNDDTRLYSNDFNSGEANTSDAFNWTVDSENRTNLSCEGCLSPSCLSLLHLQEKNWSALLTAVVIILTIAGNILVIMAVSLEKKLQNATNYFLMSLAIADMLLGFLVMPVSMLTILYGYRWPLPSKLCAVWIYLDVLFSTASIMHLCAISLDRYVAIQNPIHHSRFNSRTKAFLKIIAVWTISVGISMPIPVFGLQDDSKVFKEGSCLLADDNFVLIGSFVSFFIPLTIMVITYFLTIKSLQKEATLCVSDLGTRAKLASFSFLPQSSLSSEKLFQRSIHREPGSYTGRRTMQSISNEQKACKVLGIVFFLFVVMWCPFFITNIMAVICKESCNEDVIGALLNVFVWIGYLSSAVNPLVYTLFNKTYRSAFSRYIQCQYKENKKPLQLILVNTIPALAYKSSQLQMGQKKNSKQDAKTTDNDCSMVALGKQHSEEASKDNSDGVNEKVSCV

Assays:
5HT2A receptor [1] = molecular target: T1, 5HT2A receptor (Homo sapiens, UniProt P28223); assay: Downstream calcium flux functional activity assay, method 1 (HEK293 cells stably expressing the receptor); details: for Ca^2+ flux Assay Emax%: method 1, highest concentration of 5-HT = 100%; for EC50: read-out: Ca^2+ flux Assay EC50, method 1, HEK293-5HT2AR cells
5HT2A receptor [2] = molecular target: T1, 5HT2A receptor; assay: Downstream beta-arrestin functional activity assay, method 1 (NanoBit); details: for β-arrestin Emax%: method 1, highest concentration of 5-HT = 100%; for EC50: read-out: β-arrestin EC50, method 1, HEK293 cells
5HT2A receptor [3] = molecular target: T1, 5HT2A receptor; assay: Affinity assay for 5-HT2A receptor, radioligand competition with [3H]-ketanserin; details: read-out: [3H]Ketanserin Ki; membranes of HEK293 cells stably expressing the 5-HT2A receptor
5HT2A receptor [4] = molecular target: T1, 5HT2A receptor; assay: Downstream beta-arrestin functional activity assay, method 2 (NanoBret); details: for β-arrestin Emax%: method 2, highest concentration of 5-HT = 100%; for EC50: read-out: β-arrestin EC50, method 2, HEK293 cells
5HT2A receptor [5] = molecular target: T1, 5HT2A receptor; assay: Downstream calcium flux functional activity assay, method 2 (HEK293 cells transiently transfected); details: for Ca^2+ flux Assay Emax%: method 2, highest concentration of 5-HT = 100%; for EC50: read-out: Ca^2+ flux Assay EC50, method 2, transiently transfected HEK293 cells
[6] = Metabolic property test 5.2, plasma pharmacokinetics after intravenous injection and oral gavage

SMILES	Ca^2+ flux Assay Emax% (5HT2A receptor [1]) [%]	EC50 (5HT2A receptor [1]) [nM]	β-arrestin Emax% (5HT2A receptor [2]) [%]	EC50 (5HT2A receptor [2]) [nM]	Ki (5HT2A receptor [3]) [nM]	also measured
CN1CCN2c3c(cccc31)[C@@H]1CN(CCCc3ccccc3S(C)(=O)=O)CC[C@@H]12	2.19	> 100000	35.01	144	288	–
COc1cccnc1CCCN1CC[C@H]2[C@@H](C1)c1cccc3c1N2CCN3C	-0.07	> 100000	16.34	64.5	60.7	–
CN1CCN2c3c(cccc31)[C@@H]1CN(CCC(=O)c3ccncc3)CC[C@@H]12	–	–	86.37	282	–	–
CN1CCN2c3c(cccc31)[C@@H]1CN(CCC(F)c3cccc4c3OCC4)CC[C@@H]12 (stereo partly shown)	–	–	49.46	170	176	–
CN1CCN2c3c(cccc31)[C@@H]1CN(CCCc3ccccc3OCC(C)(C)O)CC[C@@H]12	6.52	> 100000	–	–	359	–
CN1CCN2c3c(cccc31)[C@@H]1CN(CCCN3CCCCC3)CC[C@@H]12	–	–	–	–	358	–
COc1ccccc1OCCN1CC[C@H]2[C@@H](C1)c1cccc3c1N2CCN3C	-0.44	> 100000	64.34	444	239	–
CN1CCN2c3c(cccc31)[C@@H]1CN(CCC3COc4ccccc43)CC[C@@H]12 (stereo partly shown)	5.58	> 100000	–	–	72	–
CN1CCN2c3c(cccc31)[C@@H]1CN(CCCc3nccc4c3CCO4)CC[C@@H]12	1.44	> 100000	–	–	127	–
CC(=O)c1ccccc1CCCN1CC[C@H]2[C@@H](C1)c1cccc3c1N2CCN3C	–	–	–	–	77.3	–
CN1CCN2c3c(cccc31)[C@@H]1CN(CCc3noc4ccccc34)CC[C@@H]12	33.47	5110	54.17	438	99.3	–
CN1CCN2c3c(cccc31)[C@@H]1CN(CCCc3ccccn3)CC[C@@H]12	31.89	> 100000	37.21	29.1	205	–
CN1CCN2c3c(cccc31)[C@@H]1CN(CCCc3ccccc3OCCO)CC[C@@H]12	–	–	–	–	308	–
CN1CCN2c3c(cccc31)[C@@H]1CN(CCCc3ccccc3N3CCOCC3)CC[C@@H]12	6.29	> 100000	–	–	247	–
CN1CCN2c3c(cccc31)[C@@H]1CN(CCc3c[nH]c4ccccc34)CC[C@@H]12	9.60	> 100000	–	–	170	–
CN1CCN2c3c(cccc31)[C@@H]1CN(CCc3coc4ccccc34)CC[C@@H]12	1.31	> 100000	23.62	83.3	56.8	–
CN1CCN2c3c(cccc31)[C@@H]1CN(CCCc3cccs3)CC[C@@H]12	10.40	> 100000	–	–	110	–
COc1ccncc1CCCN1CC[C@H]2[C@@H](C1)c1cccc3c1N2CCN3C	1.24	> 100000	20.54	1270	–	–
COc1ncccc1CCCN1CC[C@H]2[C@@H](C1)c1cccc3c1N2CCN3C	3.72	> 100000	–	–	85.4	–
COc1ccccc1C(=O)CCN1CC[C@H]2[C@@H](C1)c1cccc3c1N2CCN3C	–	–	118.20	79.4	194	–
CSc1ccccc1CCCN1CC[C@H]2[C@@H](C1)c1cccc3c1N2CCN3C	7.01	> 100000	–	–	50.6	–
CN1CCN2c3c(cccc31)[C@@H]1CN(CCCc3nccc4c3OCC4)CC[C@@H]12	2.65	> 100000	40.02	186	50.9	–
CN1CCN2c3c(cccc31)[C@@H]1CN(CCc3nc4ccccc4o3)CC[C@@H]12	0.88	> 100000	46.87	717	–	–
CN1CCN2c3c(cccc31)[C@@H]1CN(CCCC(=O)c3ccc(F)cc3)CC[C@@H]12	–	–	–	–	–	F ([6]; P.O 10 mg/kg vs i.v 2 mg/kg, F(%) = (AUC0-inf-PO/AUC0-inf-IV)/(DosePO/DoseIV) × 100): 2.3%; AUC 0-inf ([6]; P.O 10 mg/kg, mouse plasma): 54 ng·h/mL; t1/2 ([6]; P.O 10 mg/kg, mouse plasma): 2.4 h; AUC 0-inf ([6]; i.v 2 mg/kg, mouse plasma): 463 ng·h/mL; C1 ([6]; i.v 2 mg/kg, mouse plasma): 72 mL/min/kg; Vd ([6]; i.v 2 mg/kg, mouse plasma): 11.2 L/kg; t1/2 ([6]; i.v 2 mg/kg, mouse plasma): 1.98 h
CN1CCN2c3c(cccc31)[C@@H]1CN(CCC(O)c3ccccc3)CC[C@@H]12 (stereo partly shown)	–	–	–	–	416	–
CN1CCN2c3c(cccc31)[C@@H]1CN(CCCc3cccc4c3OCCC4)CC[C@@H]12	25.06	> 100000	44.38	15.6	225	–
CC1C(=O)Nc2cccc3c2N1[C@H]1CCN(CCCc2cccc4c2OCC4)C[C@@H]31 (stereo partly shown)	–	–	–	–	–	β-arrestin Emax% (5HT2A receptor [4]): 46.5%; EC50 (5HT2A receptor [4]): 372 nM; Ca^2+ flux Assay Emax% (5HT2A receptor [5]): 9.139%; EC50 (5HT2A receptor [5]): > 100000 nM
COc1ccccc1NCCN1CC[C@H]2[C@@H](C1)c1cccc3c1N2CCN3C	–	–	–	–	353	–
CN1C(=O)CN2c3c(cccc31)[C@@H]1CN(CCCc3nccc4c3OCC4)CC[C@@H]12	–	–	–	–	–	β-arrestin Emax% (5HT2A receptor [4]): 178.3%; EC50 (5HT2A receptor [4]): 189 nM; Ca^2+ flux Assay Emax% (5HT2A receptor [5]): 18.46%; EC50 (5HT2A receptor [5]): 412 nM

The next lines start with results.

Ca^2+ flux Assay Emax% (5HT2A receptor [1]) [%]	EC50 (5HT2A receptor [1]) [nM]	β-arrestin Emax% (5HT2A receptor [2]) [%]	EC50 (5HT2A receptor [2]) [nM]	Ki (5HT2A receptor [3]) [nM]	SMILES	also measured
–	–	–	–	6.07	CN1CCN2c3c(cccc31)[C@@H]1CN(CC(F)Cc3cccc4c3OCC4)CC[C@@H]12 (stereo partly shown)	β-arrestin Emax% (5HT2A receptor [4]): 59.0%; EC50 (5HT2A receptor [4]): 236 nM; Ca^2+ flux Assay Emax% (5HT2A receptor [5]): 8.64%; EC50 (5HT2A receptor [5]): > 100000 nM
5.58	> 100000	–	–	42.3	CN1CCN2c3c(cccc31)[C@@H]1CN(CCCc3cccc4c3NCCC4)CC[C@@H]12	–
5.10	> 100000	–	–	37.4	CN1CCN2c3c(cccc31)[C@@H]1CN(CCCc3ccccc3C#N)CC[C@@H]12	–
1.15	> 100000	–	–	37.9	CN1CCN2c3c(cccc31)[C@@H]1CN(CCCc3ccccc3OCC(F)(F)F)CC[C@@H]12	–
–	–	25.65	101	8	c1cc(CCCN2CCC3C(C2)c2cccc4c2N3CCO4)c2c(c1)CCO2 (stereo not shown)	–
4.07	> 100000	13.87	47.2	14.4	COc1sccc1CCCN1CC[C@H]2[C@@H](C1)c1cccc3c1N2CCN3C	–
-0.04	> 100000	–	–	12.5	CN1CCN2c3c(cccc31)[C@@H]1CN(CCCc3cccc4ncoc34)CC[C@@H]12	–
0.81	> 100000	39.41	30.9	6.11	c1cc(CCCN2CCC3C(C2)c2cccc4c2N3CCC4)c2c(c1)CCO2 (stereo not shown)	–
5.13	> 100000	–	–	7.04	CN1CCN2c3c(cccc31)[C@@H]1CN(CCCc3ccccc3N)CC[C@@H]12	–
–	–	–	–	3.58	c1cc(CCCN2CCC3C(C2)c2cccc4c2N3CCS4)c2c(c1)CCO2 (stereo not shown)	β-arrestin Emax% (5HT2A receptor [4]): 130.9%; EC50 (5HT2A receptor [4]): 139 nM; Ca^2+ flux Assay Emax% (5HT2A receptor [5]): 74.77%; EC50 (5HT2A receptor [5]): 4420 nM
21.06	46000	–	–	2.43	CN1CCN2c3c(cccc31)[C@@H]1CN(CCCc3cccc4cc[nH]c34)CC[C@@H]12	–
0.40	> 100000	–	–	4.21	CN1CCN2c3c(cccc31)[C@@H]1CN(CCCc3cccc4c3CCO4)CC[C@@H]12	–
6.42	> 100000	23.62	35.9	29.9	CN1CCN2c3c(cccc31)[C@@H]1CN(CCCc3ccccc3OC(F)F)CC[C@@H]12	–
0.75	> 100000	28.99	20.3	13.4	CN1CCN2c3c(cccc31)[C@@H]1CN(CCCc3cccc4c3OCC4)CC[C@@H]12	–
–	–	–	–	3.28	c1cc(CCCN2CC[C@H]3[C@@H](C2)c2cccc4c2N3CCN4C2COC2)c2c(c1)CCO2	β-arrestin Emax% (5HT2A receptor [4]): 56.2%; EC50 (5HT2A receptor [4]): 95.4 nM; Ca^2+ flux Assay Emax% (5HT2A receptor [5]): 4.91%; EC50 (5HT2A receptor [5]): > 100000 nM
6.06	> 100000	–	–	2.99	CN1CCN2c3c(cccc31)[C@@H]1CN(CCCc3cccc4c3NCC4)CC[C@@H]12	–
69.50	6140	49.91	32.2	31.1	CN1CCN2c3c(cccc31)[C@@H]1CN(CCCc3cccc4c3OC(F)(F)O4)CC[C@@H]12	–
–	–	–	–	14.9	O=C1CN2c3c(cccc3[C@@H]3CN(CCCc4cccc5c4OCC5)CC[C@@H]32)N1	β-arrestin Emax% (5HT2A receptor [4]): 30.2%; EC50 (5HT2A receptor [4]): 163 nM; Ca^2+ flux Assay Emax% (5HT2A receptor [5]): 1.12%; EC50 (5HT2A receptor [5]): > 100000 nM
43.89	41800	–	–	22.4	CN1CCN2c3c(cccc31)[C@@H]1CN(C/C=C/c3cccc4ccoc34)CC[C@@H]12	–
